What was measured:
[1] = Docetaxel distribution in Slco1b2−/− and wild-type mice
OATP1B1 = OATP1B1 (Homo sapiens, UniProt Q9Y6L6); test: Docetaxel transport kinetics in HeLa cells expressing OATP1B1; settings: high affinity, low capacity component, 0.1-300 μM
OATP1B3 variants [2] = molecular target: OATP1B3 variants (Homo sapiens, UniProt Q9NPD5, H520P)
OATP1B3 variants [3] = molecular target: OATP1B3 variants (Homo sapiens, UniProt Q9NPD5, V560A)
OATP1B3 variants [4] = molecular target: OATP1B3 variants (Homo sapiens, UniProt Q9NPD5, M233I/S112A)
OATP1B3 variants [5] = molecular target: OATP1B3 variants (Homo sapiens, UniProt Q9NPD5, M233I)
[6] = cited from earlier work

Sequences of proteins named here, by UniProt entry; tags and fusion partners are left off. A change or cut given only in a name is not applied to a line headed by its entry.
UniProt Q9Y6L6: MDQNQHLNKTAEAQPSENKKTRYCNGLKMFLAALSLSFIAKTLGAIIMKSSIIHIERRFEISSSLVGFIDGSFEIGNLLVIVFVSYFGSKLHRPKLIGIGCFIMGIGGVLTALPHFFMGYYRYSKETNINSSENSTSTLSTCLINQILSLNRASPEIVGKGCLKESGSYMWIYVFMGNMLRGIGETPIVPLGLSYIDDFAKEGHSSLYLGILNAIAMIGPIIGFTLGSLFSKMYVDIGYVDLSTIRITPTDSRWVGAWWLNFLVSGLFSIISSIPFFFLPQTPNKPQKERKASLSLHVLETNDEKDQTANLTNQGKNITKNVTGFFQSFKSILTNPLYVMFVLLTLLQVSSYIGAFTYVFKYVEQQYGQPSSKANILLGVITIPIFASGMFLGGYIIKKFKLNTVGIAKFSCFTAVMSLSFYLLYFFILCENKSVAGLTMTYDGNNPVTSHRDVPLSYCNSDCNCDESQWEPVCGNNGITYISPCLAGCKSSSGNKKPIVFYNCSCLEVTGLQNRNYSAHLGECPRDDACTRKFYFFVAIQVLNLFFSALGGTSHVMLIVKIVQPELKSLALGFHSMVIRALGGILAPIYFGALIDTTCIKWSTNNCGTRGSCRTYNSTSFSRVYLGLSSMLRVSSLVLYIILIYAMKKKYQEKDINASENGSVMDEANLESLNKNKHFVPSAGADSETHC
UniProt Q9NPD5, whole entry H520P: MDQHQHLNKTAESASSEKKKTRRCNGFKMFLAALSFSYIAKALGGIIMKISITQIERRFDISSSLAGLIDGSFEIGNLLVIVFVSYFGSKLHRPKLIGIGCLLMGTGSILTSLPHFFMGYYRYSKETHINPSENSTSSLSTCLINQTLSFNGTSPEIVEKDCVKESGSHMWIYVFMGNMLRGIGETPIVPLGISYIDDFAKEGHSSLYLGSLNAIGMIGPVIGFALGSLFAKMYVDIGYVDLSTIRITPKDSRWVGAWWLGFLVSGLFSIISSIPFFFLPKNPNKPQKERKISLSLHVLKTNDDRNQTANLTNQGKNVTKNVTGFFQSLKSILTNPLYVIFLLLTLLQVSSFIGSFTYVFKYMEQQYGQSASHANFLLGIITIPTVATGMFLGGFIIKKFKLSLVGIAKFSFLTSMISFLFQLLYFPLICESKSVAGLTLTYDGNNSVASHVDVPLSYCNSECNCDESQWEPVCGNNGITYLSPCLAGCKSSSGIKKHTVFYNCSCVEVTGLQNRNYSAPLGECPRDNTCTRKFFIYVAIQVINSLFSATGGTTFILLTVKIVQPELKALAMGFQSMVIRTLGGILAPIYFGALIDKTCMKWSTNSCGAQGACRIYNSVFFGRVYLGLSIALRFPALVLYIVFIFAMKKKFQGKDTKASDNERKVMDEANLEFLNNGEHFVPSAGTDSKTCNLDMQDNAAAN
UniProt Q9NPD5, whole entry V560A: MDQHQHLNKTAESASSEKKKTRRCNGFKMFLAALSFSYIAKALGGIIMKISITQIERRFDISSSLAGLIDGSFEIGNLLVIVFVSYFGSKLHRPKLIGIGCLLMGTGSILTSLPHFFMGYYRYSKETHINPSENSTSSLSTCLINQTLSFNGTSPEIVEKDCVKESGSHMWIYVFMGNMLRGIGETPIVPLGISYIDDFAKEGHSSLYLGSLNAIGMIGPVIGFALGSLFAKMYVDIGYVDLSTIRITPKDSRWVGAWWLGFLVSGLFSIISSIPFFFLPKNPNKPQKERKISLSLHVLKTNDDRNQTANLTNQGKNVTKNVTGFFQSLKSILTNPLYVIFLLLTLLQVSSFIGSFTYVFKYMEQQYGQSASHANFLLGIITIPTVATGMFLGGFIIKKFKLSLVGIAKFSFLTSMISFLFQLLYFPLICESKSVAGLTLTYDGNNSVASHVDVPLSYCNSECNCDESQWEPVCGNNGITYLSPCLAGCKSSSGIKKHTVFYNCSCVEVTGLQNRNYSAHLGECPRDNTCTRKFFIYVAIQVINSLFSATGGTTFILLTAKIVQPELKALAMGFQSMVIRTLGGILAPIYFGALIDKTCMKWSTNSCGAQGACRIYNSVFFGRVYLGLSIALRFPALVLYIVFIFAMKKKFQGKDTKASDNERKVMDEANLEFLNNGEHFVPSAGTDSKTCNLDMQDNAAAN
UniProt Q9NPD5, whole entry S112A/M233I: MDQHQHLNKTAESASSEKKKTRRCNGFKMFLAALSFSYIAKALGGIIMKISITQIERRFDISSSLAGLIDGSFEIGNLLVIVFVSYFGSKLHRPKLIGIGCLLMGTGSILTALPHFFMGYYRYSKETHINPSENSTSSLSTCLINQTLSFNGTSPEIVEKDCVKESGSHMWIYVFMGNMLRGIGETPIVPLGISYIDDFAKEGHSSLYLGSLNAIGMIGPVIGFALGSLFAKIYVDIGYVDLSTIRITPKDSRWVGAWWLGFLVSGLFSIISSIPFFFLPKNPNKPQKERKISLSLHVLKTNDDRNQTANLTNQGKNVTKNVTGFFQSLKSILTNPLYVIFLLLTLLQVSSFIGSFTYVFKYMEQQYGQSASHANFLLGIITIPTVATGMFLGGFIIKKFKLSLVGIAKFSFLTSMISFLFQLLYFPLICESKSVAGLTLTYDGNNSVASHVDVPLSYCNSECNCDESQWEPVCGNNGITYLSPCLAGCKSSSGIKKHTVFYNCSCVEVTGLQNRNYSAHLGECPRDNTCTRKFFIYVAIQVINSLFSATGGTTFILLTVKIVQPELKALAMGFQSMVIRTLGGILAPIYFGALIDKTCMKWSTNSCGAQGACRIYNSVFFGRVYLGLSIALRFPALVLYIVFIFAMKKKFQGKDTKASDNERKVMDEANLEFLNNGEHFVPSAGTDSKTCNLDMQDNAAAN
UniProt Q9NPD5, whole entry M233I: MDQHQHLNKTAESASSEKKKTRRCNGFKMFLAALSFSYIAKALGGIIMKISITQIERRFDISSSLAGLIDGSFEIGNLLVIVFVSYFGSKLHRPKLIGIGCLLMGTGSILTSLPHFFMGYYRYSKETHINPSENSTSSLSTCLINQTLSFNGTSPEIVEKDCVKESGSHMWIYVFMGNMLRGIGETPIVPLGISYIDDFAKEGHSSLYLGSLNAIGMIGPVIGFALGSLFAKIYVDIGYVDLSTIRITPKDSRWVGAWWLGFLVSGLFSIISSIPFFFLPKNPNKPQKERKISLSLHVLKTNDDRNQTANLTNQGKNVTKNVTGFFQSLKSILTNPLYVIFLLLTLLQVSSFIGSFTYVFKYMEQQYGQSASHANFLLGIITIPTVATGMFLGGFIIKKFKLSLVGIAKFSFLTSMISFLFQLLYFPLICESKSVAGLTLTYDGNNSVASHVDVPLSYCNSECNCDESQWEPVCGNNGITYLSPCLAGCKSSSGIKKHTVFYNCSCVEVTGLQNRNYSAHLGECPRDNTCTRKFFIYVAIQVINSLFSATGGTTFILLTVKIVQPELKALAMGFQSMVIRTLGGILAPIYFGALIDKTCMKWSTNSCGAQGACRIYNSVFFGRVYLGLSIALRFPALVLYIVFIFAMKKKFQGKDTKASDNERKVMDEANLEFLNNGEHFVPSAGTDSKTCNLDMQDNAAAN

SMILES: CC(=O)O[C@@]12CO[C@@H]1C[C@H](O)[C@@]1(C)C(=O)[C@H](O)C3=C(C)[C@@H](OC(=O)[C@H](O)[C@@H](NC(=O)OC(C)(C)C)c4ccccc4)C[C@@](O)([C@@H](OC(=O)c4ccccc4)[C@H]21)C3(C)C [docetaxel]
- plasma AUC in Slco1b2−/− mice relative to wild-type mice (greater) ([1]; 1 mg/kg intravenous, male mice): ~ 5.5 fold
- liver-to-plasma ratio, decrease in Slco1b2−/− versus wild-type mice ([1]; 30 min after 1 mg/kg intravenous, p < 0.05): ~ 3 fold
- plasma concentrations in Slco1b2−/− mice, higher than wild-type mice ([1]; p<0.01): ~5.5 fold
- Vmax (OATP1B1): 37.7 ± 47.2 pmol/mg/min
- docetaxel uptake relative to wild-type OATP1B3*1 (OATP1B3 variants [2]): impaired docetaxel transport
- docetaxel uptake relative to wild-type OATP1B3*1 (OATP1B3 variants [3]): impaired docetaxel transport
- docetaxel uptake relative to wild-type OATP1B3*1 (OATP1B3 variants [4]): impaired docetaxel transport
- docetaxel uptake relative to wild-type OATP1B3*1 (OATP1B3 variants [5]): impaired docetaxel transport
- decrease in clearance in Slco1b2−/− mice [6]: 18 fold

Reference: PMC4394048 (Molecular cancer therapeutics, 2015)
